A short description of assay [1]: Selectivity for protein phosphatase 2A over protein phosphatase 1.
A short description of assay [2]: Selectivity for protein phosphatase 2A over protein phosphatase 5.
Assay [3] in a line: Selectivity for protein phosphatase 2A over protein phosphatase 2B.

Some results are limits rather than exact numbers.

As to `C[C@@](O)(/C=C/[C@H]1CC=CC(=O)O1)[C@@H](C[C@@H](O)\C=C/C=C\C=C\CO)OP(=O)(O)O` [FOSTRIECIN], the Ratio IC50 in assay [1] is above 100000. In addition, the values for the Selectivity ratio in assay [2] and in assay [3] were above 100000 and above 1e+06, respectively.

For the origin of these results see ChEMBL document CHEMBL1152684, “Antitumor antibiotic fostriecin covalently binds to cysteine-269 residue of protein phosphatase 2A catalytic subunit in mammalian cells” (Bioorg Med Chem, 2009).
